From publication PMC10390045 come the findings set out here.

The nature of series [1]: EpiQuik DNMT activity ELISA on immunoprecipitated Myc-DNMT1. The following applies: glycan lost; control: Myc-DNMT1-WT under high glucose/TMG. (In general: An ELISA detects its analyte on a solid surface through an enzyme-linked reagent.)
Series [2] can be described thus: immunofluorescence, confocal microscopy. The following applies: glycan gained; control: DNMT1-WT, low glucose.

B1: DNMT1: T158A (protein)
parent chain: MPARTAPARVPTLAVPAISLPDDVRRRLKDLERDSLTEKECVKEKLNLLHEFLQTEIKNQLCDLETKLRKEELSEEGYLAKVKSLLNKDLSLENGAHAYNREVNGRLENGNQARSEARRVGMADANSPPKPLSKPRTPRRSKSDGEAKPEPSPSPRITRKSTRQTTITSHFAKGPAKRKPQEESERAKSDESIKEEDKDQDEKRRRVTSRERVARPLPAEEPERAKSGTRTEKEEERDEKEEKRLRSQTKEPTPKQKLKEEPDREARAGVQADEDEDGDEKDEKKHRSQPKDLAAKRRPEEKEPEKVNPQISDEKDEDEKEEKRRKTTPKEPTEKKMARAKTVMNSKTHPPKCIQCGQYLDDPDLKYGQHPPDAVDEPQMLTNEKLSIFDANESGFESYEALPQHKLTCFSVYCKHGHLCPIDTGLIEKNIELFFSGSAKPIYDDDPSLEGGVNGKNLGPINEWWITGFDGGEKALIGFSTSFAEYILMDPSPEYAPIFGLMQEKIYISKIVVEFLQSNSDSTYEDLINKIETTVPPSGLNLNRFTEDSLLRHAQFVVEQVESYDEAGDSDEQPIFLTPCMRDLIKLAGVTLGQRRAQARRQTIRHSTREKDRGPTKATTTKLVYQIFDTFFAEQIEKDDREDKENAFKRRRCGVCEVCQQPECGKCKACKDMVKFGGSGRSKQACQERRCPNMAMKEADDDEEVDDNIPEMPSPKKMHQGKKKKQNKNRISWVGEAVKTDGKKSYYKKVCIDAETLEVGDCVSVIPDDSSKPLYLARVTALWEDSSNGQMFHAHWFCAGTDTVLGATSDPLELFLVDECEDMQLSYIHSKVKVIYKAPSENWAMEGGMDPESLLEGDDGKTYFYQLWYDQDYARFESPPKTQPTEDNKFKFCVSCARLAEMRQKEIPRVLEQLEDLDSRVLYYSATKNGILYRVGDGVYLPPEAFTFNIKLSSPVKRPRKEPVDEDLYPEHYRKYSDYIKGSNLDAPEPYRIGRIKEIFCPKKSNGRPNETDIKIRVNKFYRPENTHKSTPASYHADINLLYWSDEEAVVDFKAVQGRCTVEYGEDLPECVQVYSMGGPNRFYFLEAYNAKSKSFEDPPNHARSPGNKGKGKGKGKGKPKSQACEPSEPEIEIKLPKLRTLDVFSGCGGLSEGFHQAGISDTLWAIEMWDPAAQAFRLNNPGSTVFTEDCNILLKLVMAGETTNSRGQRLPQKGDVEMLCGGPPCQGFSGMNRFNSRTYSKFKNSLVVSFLSYCDYYRPRFFLLENVRNFVSFKRSMVLKLTLRCLVRMGYQCTFGVLQAGQYGVAQTRRRAIILAAAPGEKLPLFPEPLHVFAPRACQLSVVVDDKKFVSNITRLSSGPFRTITVRDTMSDLPEVRNGASALEISYNGEPQSWFQRQLRGAQYQPILRDHICKDMSALVAARMRHIPLAPGSDWRDLPNIEVRLSDGTMARKLRYTHHDRKNGRSSSGALRGVCSCVEAGKACDPAARQFNTLIPWCLPHTGNRHNHWAGLYGRLEWDGFFSTTVTNPEPMGKQGRVLHPEQHRVVSVRECARSQGFPDTYRLFGNILDKHRQVGNAVPPPLAKAIGLEIKLCMLAKARESASAKIKEEEAAKD
On to B1, for which the enzymatic_activity entry in series [1] was “no change”.

B2: DNMT1: S878D (protein)
parent chain: MPARTAPARVPTLAVPAISLPDDVRRRLKDLERDSLTEKECVKEKLNLLHEFLQTEIKNQLCDLETKLRKEELSEEGYLAKVKSLLNKDLSLENGAHAYNREVNGRLENGNQARSEARRVGMADANSPPKPLSKPRTPRRSKSDGEAKPEPSPSPRITRKSTRQTTITSHFAKGPAKRKPQEESERAKSDESIKEEDKDQDEKRRRVTSRERVARPLPAEEPERAKSGTRTEKEEERDEKEEKRLRSQTKEPTPKQKLKEEPDREARAGVQADEDEDGDEKDEKKHRSQPKDLAAKRRPEEKEPEKVNPQISDEKDEDEKEEKRRKTTPKEPTEKKMARAKTVMNSKTHPPKCIQCGQYLDDPDLKYGQHPPDAVDEPQMLTNEKLSIFDANESGFESYEALPQHKLTCFSVYCKHGHLCPIDTGLIEKNIELFFSGSAKPIYDDDPSLEGGVNGKNLGPINEWWITGFDGGEKALIGFSTSFAEYILMDPSPEYAPIFGLMQEKIYISKIVVEFLQSNSDSTYEDLINKIETTVPPSGLNLNRFTEDSLLRHAQFVVEQVESYDEAGDSDEQPIFLTPCMRDLIKLAGVTLGQRRAQARRQTIRHSTREKDRGPTKATTTKLVYQIFDTFFAEQIEKDDREDKENAFKRRRCGVCEVCQQPECGKCKACKDMVKFGGSGRSKQACQERRCPNMAMKEADDDEEVDDNIPEMPSPKKMHQGKKKKQNKNRISWVGEAVKTDGKKSYYKKVCIDAETLEVGDCVSVIPDDSSKPLYLARVTALWEDSSNGQMFHAHWFCAGTDTVLGATSDPLELFLVDECEDMQLSYIHSKVKVIYKAPSENWAMEGGMDPESLLEGDDGKTYFYQLWYDQDYARFESPPKTQPTEDNKFKFCVSCARLAEMRQKEIPRVLEQLEDLDSRVLYYSATKNGILYRVGDGVYLPPEAFTFNIKLSSPVKRPRKEPVDEDLYPEHYRKYSDYIKGSNLDAPEPYRIGRIKEIFCPKKSNGRPNETDIKIRVNKFYRPENTHKSTPASYHADINLLYWSDEEAVVDFKAVQGRCTVEYGEDLPECVQVYSMGGPNRFYFLEAYNAKSKSFEDPPNHARSPGNKGKGKGKGKGKPKSQACEPSEPEIEIKLPKLRTLDVFSGCGGLSEGFHQAGISDTLWAIEMWDPAAQAFRLNNPGSTVFTEDCNILLKLVMAGETTNSRGQRLPQKGDVEMLCGGPPCQGFSGMNRFNSRTYSKFKNSLVVSFLSYCDYYRPRFFLLENVRNFVSFKRSMVLKLTLRCLVRMGYQCTFGVLQAGQYGVAQTRRRAIILAAAPGEKLPLFPEPLHVFAPRACQLSVVVDDKKFVSNITRLSSGPFRTITVRDTMSDLPEVRNGASALEISYNGEPQSWFQRQLRGAQYQPILRDHICKDMSALVAARMRHIPLAPGSDWRDLPNIEVRLSDGTMARKLRYTHHDRKNGRSSSGALRGVCSCVEAGKACDPAARQFNTLIPWCLPHTGNRHNHWAGLYGRLEWDGFFSTTVTNPEPMGKQGRVLHPEQHRVVSVRECARSQGFPDTYRLFGNILDKHRQVGNAVPPPLAKAIGLEIKLCMLAKARESASAKIKEEEAAKD
Consider B2, for which, in series [1], the enzymatic_activity result is “increases”.

B3: DNMT1: 25 mM glucose + TMG (protein)
parent chain: MPARTAPARVPTLAVPAISLPDDVRRRLKDLERDSLTEKECVKEKLNLLHEFLQTEIKNQLCDLETKLRKEELSEEGYLAKVKSLLNKDLSLENGAHAYNREVNGRLENGNQARSEARRVGMADANSPPKPLSKPRTPRRSKSDGEAKPEPSPSPRITRKSTRQTTITSHFAKGPAKRKPQEESERAKSDESIKEEDKDQDEKRRRVTSRERVARPLPAEEPERAKSGTRTEKEEERDEKEEKRLRSQTKEPTPKQKLKEEPDREARAGVQADEDEDGDEKDEKKHRSQPKDLAAKRRPEEKEPEKVNPQISDEKDEDEKEEKRRKTTPKEPTEKKMARAKTVMNSKTHPPKCIQCGQYLDDPDLKYGQHPPDAVDEPQMLTNEKLSIFDANESGFESYEALPQHKLTCFSVYCKHGHLCPIDTGLIEKNIELFFSGSAKPIYDDDPSLEGGVNGKNLGPINEWWITGFDGGEKALIGFSTSFAEYILMDPSPEYAPIFGLMQEKIYISKIVVEFLQSNSDSTYEDLINKIETTVPPSGLNLNRFTEDSLLRHAQFVVEQVESYDEAGDSDEQPIFLTPCMRDLIKLAGVTLGQRRAQARRQTIRHSTREKDRGPTKATTTKLVYQIFDTFFAEQIEKDDREDKENAFKRRRCGVCEVCQQPECGKCKACKDMVKFGGSGRSKQACQERRCPNMAMKEADDDEEVDDNIPEMPSPKKMHQGKKKKQNKNRISWVGEAVKTDGKKSYYKKVCIDAETLEVGDCVSVIPDDSSKPLYLARVTALWEDSSNGQMFHAHWFCAGTDTVLGATSDPLELFLVDECEDMQLSYIHSKVKVIYKAPSENWAMEGGMDPESLLEGDDGKTYFYQLWYDQDYARFESPPKTQPTEDNKFKFCVSCARLAEMRQKEIPRVLEQLEDLDSRVLYYSATKNGILYRVGDGVYLPPEAFTFNIKLSSPVKRPRKEPVDEDLYPEHYRKYSDYIKGSNLDAPEPYRIGRIKEIFCPKKSNGRPNETDIKIRVNKFYRPENTHKSTPASYHADINLLYWSDEEAVVDFKAVQGRCTVEYGEDLPECVQVYSMGGPNRFYFLEAYNAKSKSFEDPPNHARSPGNKGKGKGKGKGKPKSQACEPSEPEIEIKLPKLRTLDVFSGCGGLSEGFHQAGISDTLWAIEMWDPAAQAFRLNNPGSTVFTEDCNILLKLVMAGETTNSRGQRLPQKGDVEMLCGGPPCQGFSGMNRFNSRTYSKFKNSLVVSFLSYCDYYRPRFFLLENVRNFVSFKRSMVLKLTLRCLVRMGYQCTFGVLQAGQYGVAQTRRRAIILAAAPGEKLPLFPEPLHVFAPRACQLSVVVDDKKFVSNITRLSSGPFRTITVRDTMSDLPEVRNGASALEISYNGEPQSWFQRQLRGAQYQPILRDHICKDMSALVAARMRHIPLAPGSDWRDLPNIEVRLSDGTMARKLRYTHHDRKNGRSSSGALRGVCSCVEAGKACDPAARQFNTLIPWCLPHTGNRHNHWAGLYGRLEWDGFFSTTVTNPEPMGKQGRVLHPEQHRVVSVRECARSQGFPDTYRLFGNILDKHRQVGNAVPPPLAKAIGLEIKLCMLAKARESASAKIKEEEAAKD
As to B3, the localisation_or_trafficking result in series [2] is reported as “no change”.
